This is a sample that favours compounds with a hit; in the whole collection about 2.3% have one here.
ASAP1 inh: ASAP1 ArfGAP inhibition; Q9ULH1; ASAP1-stimulated ARF1 GTP hydrolysis, GDP FP detection; inhibition, % at 16.5 µM; 0.19% of 360,000 active; AID 624377; in the data active means inhibition above about 25%
MC4R barr agon: activates human MC4R beta-arrestin recruitment. activation, % at 8.9 µM. 0.98% of 360,000 active. AID 540308. P32245. U2OS MC4R beta-arrestin complementation, luminescence; percent of melanotan II response, DMSO zero;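 active means activation above a per-plate cutoff, the mean activation of sample wells on that plate plus 3 SD, cut at about 8% in these data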
MC4R antagonist: antagonists of human melanocortin 4 receptor (MC4R). inhibition, % at 6.5 µM. 0.48% of 360,000 active. AID 540295. MC4R-expressing cells, MTII-stimulated cAMP, LANCE TR-FRET;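 active means inhibition above its plate's cutoff, the mean of tested wells on that plate plus 3 SD, cut at about 29% in these data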
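System: U2OS-MC4R stable cell line; Technique: Eu-cAMP/anti-cAMP TR-FRET, emission 671 nm; Repeats: single well per compound; Also added: Melanotan II; Dosing: one concentration, 6.5 µM nominal; Schedule: 30-min compound, 1-h challenge, 1-h detection, room temperature.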
UUG fidelity: modulators of start codon recognition fidelity in yeast | S. cerevisiae UUG-firefly luciferase reporter, luminescence/redox ratio | activity score, % at 18.7 µM | 350,000 tested, 0.13% active;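 active = replicate mean at a twofold rise or more, about +100% in these data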;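 also: firefly luciferase made from a UUG start codon reports start codon fidelity; reporter light over untreated wells divided by growth signal over untreated wells; some hits fall short of that in this replicate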
ARFGAP1 inhibitor: inhibits rat ARF GTPase activating protein 1; Q62848; 0.26% of 360,000 active; inhibition, % at 16.5 µM; Arfgap1-stimulated ARF1 GTP hydrolysis, GDP FP detection;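 active means inhibition above a per-plate limit, mean inhibition of low control wells plus 3 SD, cut at about 25% in these data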
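Replicates: Single well per compound | Assay system: Truncated rat Arfgap1 GAP domain | Control set: No-Arfgap1 wells (100%) versus DMSO full-reaction wells (0%) | Times: Enzyme reaction 120 min at 25 °C after 20 min preincubation | Reagent: Human ARF1(Δ1-17)-GTP substrate | Measured by: Tracer-displacement fluorescence polarization with EDTA stop, 620/688 nm | Measure: Percent inhibition of Arfgap1-stimulated GTP hydrolysis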
NRP1-CendR mod: alters CendR peptide binding to human NRP-1; FAM-RPARPAR peptide binding to NRP-1, fluorescence polarization; 0.85% of 360,000 active; O14786; inhibition, % at 25 µM;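 active means inhibition or corrected inhibition above about 18%, plus a signal ratio from 0.5 to 1.5, limit read from the data, passing the limit was not always enough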
cAMP nonselect: counter-screen for MC4R antagonists: nonselective cAMP signaling inhibitors; parental U2OS, forskolin cAMP, LANCE TR-FRET; shares compounds with MC4R antagonist; AID 602193; inhibition, % at 6.5 µM; 26% of 1,600 active;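 active means mean inhibition over triplicates above the low-control well mean plus 3 SD, set per campaign, cut at about 13% in these data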;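 further: signal is single emission at 671 nm which falls as cellular cAMP rises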
MC4R antag conf: human MC4R cAMP antagonism confirmation. shares compounds with MC4R antagonist. MC4R-expressing cells, MTII-stimulated cAMP, TR-FRET. inhibition, % at 6.5 µM. 27% of 1,600 active. AID 602195; in the data active means inhibition above about 29%
Each line names hits and unclear results; the compound was inactive in the other large screens (follow-up assays come after a bar, where they were run); ! = not confirmed by another sample.

O=C1COc2ccc(C(=O)COC(=O)c3nc(Cl)ccc3Cl)cc2N1	none
COc1ccc(Cn2c(O)c(C=Nc3ccc(OC)cc3)c3ccccc3c2=O)cc1	none
COc1ccc(Cn2c(O)c(C=Nc3ccccc3C(=O)O)c3ccccc3c2=O)cc1	MC4R antagonist 32 | cAMP nonselect inactive | MC4R antag conf inactive
COc1ccc2c(C=Nc3c(C)n(C)n(-c4ccccc4)c3=O)c(O)n(Cc3ccco3)c(=O)c2c1	MC4R antagonist 37! | cAMP nonselect inactive | MC4R antag conf inactive
Cc1ccc(C(=O)OC(C)C(=O)NC2CCCCC2)cc1S(=O)(=O)N1CCCCC1 (centres undefined)	none
CC(OC(=O)c1ccc(S(C)(=O)=O)c([N+](=O)[O-])c1)C(=O)NC1C2CC3CC(C2)CC1C3 (centres undefined)	MC4R antagonist 29 | cAMP nonselect inactive | MC4R antag conf inactive
CCC(OC(=O)c1ccc(S(C)(=O)=O)c([N+](=O)[O-])c1)C(=O)NC1C2CC3CC(C2)CC1C3 (centres undefined)	MC4R antagonist 60 | cAMP nonselect inactive | MC4R antag conf inactive
NS(=O)(=O)c1ccc(CCNS(=O)(=O)c2ccc(Cl)nc2)cc1	MC4R antagonist 35 (no result: UUG fidelity) | cAMP nonselect 19 | MC4R antag conf inactive
CN(CCC#N)C(=O)COC(=O)c1ccccc1C(=O)c1ccc(Cl)c([N+](=O)[O-])c1	MC4R antagonist 33 (no result: UUG fidelity) | cAMP nonselect 24 | MC4R antag conf inactive
O=C(COC(=O)c1ccc(Cl)c([N+](=O)[O-])c1)NC1CCCC1	none
O=C(COC(=O)c1ccc2c(c1)OCO2)Nc1ccccc1OC(F)F	none
O=C(COC(=O)c1ccccc1C(=O)c1ccc(Cl)c([N+](=O)[O-])c1)NC1CCCCCC1	MC4R antagonist 64 | cAMP nonselect inactive | MC4R antag conf 31
O=C(COC(=O)c1ccc(Cl)c([N+](=O)[O-])c1)Nc1ccccc1OC(F)F	MC4R antagonist 34 (no result: UUG fidelity) | cAMP nonselect 21 | MC4R antag conf 47
CO[C@@H]1CN(C)C(=O)c2cc(NC(=O)C3CCOCC3)ccc2OC[C@@H](C)N(CC2CCCCC2)C[C@H]1C	none (no result: ASAP1 inh, MC4R barr agon, MC4R antagonist, ARFGAP1 inhibitor, NRP1-CendR mod)
CC(=O)N(c1ccccc1)c1c(F)c(F)c(F)c(F)c1F	none
CC(=O)Oc1c(C(C)C)cc(N(C(C)=O)c2ccccc2)cc1C(C)C	MC4R antagonist 33 (no result: UUG fidelity) | cAMP nonselect inactive | MC4R antag conf inactive
COc1ccc(NC(=O)CN2C(=O)C(C)SC(C)C2=O)cc1 (centres undefined)	MC4R antagonist 31 (no result: UUG fidelity) | cAMP nonselect inactive | MC4R antag conf inactive
CCCCNC(=O)C1(C)CCCCCN1Cc1cccc2c(OC)cc(C(=O)OCC)cc12 (centres undefined)	MC4R antagonist 30 | cAMP nonselect inactive | MC4R antag conf inactive
CN(C)c1ccc(-n2cccc2/C=C/[N+](=O)[O-])cc1	MC4R antagonist 39 | cAMP nonselect inactive | MC4R antag conf 31
CC(NC(=O)c1ccc(OC2CCN(Cc3ccccn3)CC2)cc1)c1nccs1 (centres undefined)	MC4R antagonist 29 | cAMP nonselect inactive | MC4R antag conf inactive
Cc1nc(C(C)NC(=O)c2ccc(OC3CCN(Cc4ccccn4)CC3)cc2)c(C)s1 (centres undefined)	none
C[C@@H]1CN([C@@H](C)CO)C(=O)c2cc(NC(=O)Nc3ccc4c(c3)OCO4)ccc2O[C@@H](C)CCCCO[C@@H]1CN(C)C(=O)c1ccccc1	none (no result: ASAP1 inh, MC4R barr agon, MC4R antagonist, ARFGAP1 inhibitor, NRP1-CendR mod)
COC(=O)C(Cc1ccccc1)NC(=O)c1ccc(C)cc1 (centres undefined)	none (no result: UUG fidelity)
COC(=O)C(Cc1ccc(O)cc1)NC(=O)c1ccccc1 (centres undefined)	MC4R antagonist 49 | cAMP nonselect 16 | MC4R antag conf 41
CS(=O)(=O)c1ccc(C(=O)OCC(=O)NC23CC4CC(CC(C4)C2)C3)cc1[N+](=O)[O-]	MC4R antagonist 50 (no result: UUG fidelity) | cAMP nonselect inactive | MC4R antag conf 62
CC(C)CN1CCN(C(=O)COC(=O)c2ccc(S(C)(=O)=O)c([N+](=O)[O-])c2)CC1	MC4R antagonist 31 | cAMP nonselect 23 | MC4R antag conf 41
CCOc1ccc(OCC)c(C2C(C#N)=C(N)N(c3cccnc3)C3=C2C(=O)CC(C)(C)C3)c1 (centres undefined)	none
CSc1sc(C)cc1C1C(C#N)=C(N)N(c2cccnc2)C2=C1C(=O)CC(C)(C)C2 (centres undefined)	MC4R antagonist 29 | cAMP nonselect inactive | MC4R antag conf inactive
